Entries after “also recorded” stand apart in the source; their conditions may differ.
Legend:
[1] = tested on: M091 tumor xenografts; conditions: mice; crizotinib (100 mg/ml) orally by gavage, daily; vs vehicle; FIG. 6(E)
[2] = molecular target: BCR-ABL (Homo sapiens, UniProt P00519); assay: HSP90β-BCR-ABL interaction, QLPPI assay
[3] = molecular target: BCR-ABL (T315I) (Homo sapiens, UniProt P00519, T315I); assay: HSP90β-BCR-ABL T315I interaction, QLPPI assay

SMILES | M091 tumor xenograft growth [1] | effect on interaction between HSP90β and BCR-ABL [2] | effect on interaction between HSP90β and BCR-ABL T315I mutant [3]
C[C@@H](Oc1cc(-c2cnn(C3CCNCC3)c2)cnc1N)c1c(Cl)ccc(F)c1Cl [Crizotinib] | dramatically inhibited; also recorded: inhibited growth |  | 
CN(C)S(=O)(=O)c1ccc2c(c1)/C(=C/c1cc3c([nH]1)CCCC3)C(=O)N2 [SU6656] |  | inhibits interaction | inhibits interaction
